Results: patent publication US9676771B2, “Compounds for inhibiting drug-resistant strains of HIV-1 integrase” (priority 2013, dated 2017)
Like-named read-outs stand apart in the source and are kept apart here.

Target: HIV-1 integrase (Human immunodeficiency virus type 1 group M subtype B, UniProt P12497)
Type: biochemical
Procedure: In Vitro Integrase Assay.
Integrase reactions were carried out by adding drugs or an equivalent volume of 100% dimethyl sulfoxide (DMSO; used as the drug solvent) to a mixture of 20 nM DNA and 400 nM integrase in 50 mM morpholinepropanesulfonic acid (pH 7.2), 7.5 mM MgCl2, and 14 mM 2-mercaptoethanol. Reactions were performed at 37° C. for 2 h and quenched by the addition of an equal volume of loading buffer (formamide containing 1% sodium dodecyl sulfate, 0.25% bromophenol blue, and xylene cyanol). […] Dried gels were visualized using a Typhoon 8600 (GE Healthcare, Piscataway, N.J.). Densitometric analyses were performed using ImageQuant 5.1 software from GE Healthcare.

COC(=O)[C@H](C)Nc1c(C(=O)NCc2ccc(F)cc2F)c(=O)n(O)c2ncccc12 [XZ394, (S)-methyl 2-((3-((2,4-difluorobenzyl)carbamoyl)-1-hydroxy-2-oxo-1,2-dihydro-1,8-naphthyridin-4-yl)amino)propanoat]
IC50 (read-out: IC50 (3^+-Processing)): 7.4 ± 0.8 µM
IC50 (read-out: IC50 (Strand Transfer)): 0.017 ± 0.002 µM
